What all share (format): cell-based
Test [1] has as its target T1, Thyroid hormone receptor alpha (Homo sapiens) (UniProt P10827).
T1 sequence (whole entry): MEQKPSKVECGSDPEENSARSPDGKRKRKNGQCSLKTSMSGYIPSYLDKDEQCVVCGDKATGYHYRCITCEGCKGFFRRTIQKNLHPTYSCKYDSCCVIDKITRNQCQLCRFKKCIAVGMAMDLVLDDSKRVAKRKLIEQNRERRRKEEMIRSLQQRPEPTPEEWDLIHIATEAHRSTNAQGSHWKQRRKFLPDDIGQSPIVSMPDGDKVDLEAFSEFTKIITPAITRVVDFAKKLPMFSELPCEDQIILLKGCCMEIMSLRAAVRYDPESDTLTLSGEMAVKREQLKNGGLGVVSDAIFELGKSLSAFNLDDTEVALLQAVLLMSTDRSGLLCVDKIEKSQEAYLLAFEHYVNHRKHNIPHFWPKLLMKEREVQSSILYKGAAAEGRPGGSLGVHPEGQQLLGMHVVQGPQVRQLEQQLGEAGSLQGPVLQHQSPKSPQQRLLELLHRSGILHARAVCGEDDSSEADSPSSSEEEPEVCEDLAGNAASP
Description: Agonist activity at human GAL4-fused THRalpha LBD expressed in human HEK293T cells cotransfected with pFR-Luc and pRL-SV40 assessed as increase in luciferase activity at 30 uM incubated for 16 hrs by Dual-Glo luciferase assay relative to control.

Amino acid sequences for entries named in this document (tags omitted). A change or cut given only in a name is not applied to a line headed by its entry.
UniProt P10276, whole entry: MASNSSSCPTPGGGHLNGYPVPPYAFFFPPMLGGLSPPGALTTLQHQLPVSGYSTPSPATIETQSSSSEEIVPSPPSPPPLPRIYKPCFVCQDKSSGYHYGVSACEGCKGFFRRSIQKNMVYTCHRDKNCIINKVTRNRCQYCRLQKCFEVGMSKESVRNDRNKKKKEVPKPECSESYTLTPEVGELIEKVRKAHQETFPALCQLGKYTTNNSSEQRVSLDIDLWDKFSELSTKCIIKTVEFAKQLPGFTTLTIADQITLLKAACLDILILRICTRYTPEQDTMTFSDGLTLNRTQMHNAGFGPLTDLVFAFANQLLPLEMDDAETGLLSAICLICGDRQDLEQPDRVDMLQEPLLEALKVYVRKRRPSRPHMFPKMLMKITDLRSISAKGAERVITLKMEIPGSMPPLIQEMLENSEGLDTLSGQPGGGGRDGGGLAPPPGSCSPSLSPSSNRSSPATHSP
UniProt P13631, whole entry: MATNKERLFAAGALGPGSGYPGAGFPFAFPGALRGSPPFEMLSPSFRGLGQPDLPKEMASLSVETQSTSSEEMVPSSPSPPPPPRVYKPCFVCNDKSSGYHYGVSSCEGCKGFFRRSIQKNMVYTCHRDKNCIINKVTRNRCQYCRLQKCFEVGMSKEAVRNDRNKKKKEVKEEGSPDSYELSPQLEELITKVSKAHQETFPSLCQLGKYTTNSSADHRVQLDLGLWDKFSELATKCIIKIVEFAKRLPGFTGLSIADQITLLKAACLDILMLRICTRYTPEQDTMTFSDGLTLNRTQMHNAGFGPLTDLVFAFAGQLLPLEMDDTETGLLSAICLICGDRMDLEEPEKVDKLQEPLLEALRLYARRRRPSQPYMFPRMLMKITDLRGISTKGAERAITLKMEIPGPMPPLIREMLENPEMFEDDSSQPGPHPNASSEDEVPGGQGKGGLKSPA
UniProt P37231: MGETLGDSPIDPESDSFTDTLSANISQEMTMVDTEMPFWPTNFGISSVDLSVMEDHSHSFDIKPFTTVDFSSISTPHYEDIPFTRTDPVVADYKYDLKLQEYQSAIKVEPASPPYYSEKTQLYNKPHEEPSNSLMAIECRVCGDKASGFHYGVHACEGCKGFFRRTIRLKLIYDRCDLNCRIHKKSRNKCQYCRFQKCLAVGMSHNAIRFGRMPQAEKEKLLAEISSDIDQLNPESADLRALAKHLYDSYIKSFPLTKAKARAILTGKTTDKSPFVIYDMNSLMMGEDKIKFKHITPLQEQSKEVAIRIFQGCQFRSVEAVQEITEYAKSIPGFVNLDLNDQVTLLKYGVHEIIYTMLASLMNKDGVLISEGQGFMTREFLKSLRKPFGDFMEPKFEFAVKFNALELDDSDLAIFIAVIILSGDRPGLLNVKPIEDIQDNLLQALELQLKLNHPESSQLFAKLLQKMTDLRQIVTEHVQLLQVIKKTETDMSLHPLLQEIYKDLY
UniProt Q13133, whole entry: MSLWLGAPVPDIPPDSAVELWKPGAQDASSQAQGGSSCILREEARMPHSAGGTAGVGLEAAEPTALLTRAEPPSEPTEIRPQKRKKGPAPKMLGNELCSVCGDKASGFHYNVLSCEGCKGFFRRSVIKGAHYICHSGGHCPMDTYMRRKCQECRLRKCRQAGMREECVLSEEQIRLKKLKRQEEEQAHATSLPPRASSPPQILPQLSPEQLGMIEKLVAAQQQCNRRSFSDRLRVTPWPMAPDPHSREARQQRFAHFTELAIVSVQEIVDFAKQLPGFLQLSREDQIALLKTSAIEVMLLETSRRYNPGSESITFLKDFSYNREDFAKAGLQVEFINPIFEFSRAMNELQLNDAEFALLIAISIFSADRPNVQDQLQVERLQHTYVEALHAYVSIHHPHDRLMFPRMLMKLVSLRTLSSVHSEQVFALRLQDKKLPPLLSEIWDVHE
UniProt P55055, whole entry: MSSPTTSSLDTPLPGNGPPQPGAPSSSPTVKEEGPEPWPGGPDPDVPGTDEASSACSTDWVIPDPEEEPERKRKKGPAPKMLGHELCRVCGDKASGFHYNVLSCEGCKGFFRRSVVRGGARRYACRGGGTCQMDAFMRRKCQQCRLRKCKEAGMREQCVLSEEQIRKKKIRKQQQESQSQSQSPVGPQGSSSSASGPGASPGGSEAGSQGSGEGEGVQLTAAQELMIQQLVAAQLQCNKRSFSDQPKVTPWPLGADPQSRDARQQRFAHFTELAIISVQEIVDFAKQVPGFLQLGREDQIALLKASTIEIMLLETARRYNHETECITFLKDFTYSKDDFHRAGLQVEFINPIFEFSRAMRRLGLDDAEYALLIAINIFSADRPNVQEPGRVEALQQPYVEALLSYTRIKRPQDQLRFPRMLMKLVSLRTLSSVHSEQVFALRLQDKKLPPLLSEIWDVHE

For test [2], the target named is Retinoic acid receptor alpha (Homo sapiens) (UniProt P10276). Description: Agonist activity at human GAL4-fused RARalpha LBD expressed in human HEK293T cells cotransfected with pFR-Luc and pRL-SV40 assessed as increase in luciferase activity at 30 uM incubated for 16 hrs by Dual-Glo luciferase assay relative to control.
Test [3] has as its target Retinoic acid receptor gamma (Homo sapiens) (UniProt P13631). Description: Agonist activity at human GAL4-fused RARgamma LBD expressed in human HEK293T cells cotransfected with pFR-Luc and pRL-SV40 assessed as increase in luciferase activity at 30 uM incubated for 16 hrs by Dual-Glo luciferase assay relative to control.
For test [4], the target named is Peroxisome proliferator-activated receptor gamma (Homo sapiens) (UniProt P37231). Briefly: Agonist activity at human GAL4-fused PPARgamma LBD expressed in human HEK293T cells cotransfected with pFR-Luc and pRL-SV40 assessed as increase in luciferase activity at 30 uM incubated for 16 hrs by Dual-Glo luciferase assay relative to control.
In test [5] the target is Oxysterols receptor LXR-alpha (Homo sapiens) (UniProt Q13133). Briefly: Agonist activity at human GAL4-fused LXRalpha LBD expressed in human HEK293T cells cotransfected with pFR-Luc and pRL-SV40 assessed as increase in luciferase activity at 30 uM incubated for 16 hrs by Dual-Glo luciferase assay relative to control.
Test [6] deals with Oxysterols receptor LXR-beta (Homo sapiens) (UniProt P55055). Briefly: Agonist activity at human GAL4-fused LXRbeta LBD expressed in human HEK293T cells cotransfected with pFR-Luc and pRL-SV40 assessed as increase in luciferase activity at 30 uM incubated for 16 hrs by Dual-Glo luciferase assay relative to control.
Test [7] addresses T2, Peroxisome proliferator-activated receptor delta (Homo sapiens) (UniProt Q03181).
T2 sequence (whole entry): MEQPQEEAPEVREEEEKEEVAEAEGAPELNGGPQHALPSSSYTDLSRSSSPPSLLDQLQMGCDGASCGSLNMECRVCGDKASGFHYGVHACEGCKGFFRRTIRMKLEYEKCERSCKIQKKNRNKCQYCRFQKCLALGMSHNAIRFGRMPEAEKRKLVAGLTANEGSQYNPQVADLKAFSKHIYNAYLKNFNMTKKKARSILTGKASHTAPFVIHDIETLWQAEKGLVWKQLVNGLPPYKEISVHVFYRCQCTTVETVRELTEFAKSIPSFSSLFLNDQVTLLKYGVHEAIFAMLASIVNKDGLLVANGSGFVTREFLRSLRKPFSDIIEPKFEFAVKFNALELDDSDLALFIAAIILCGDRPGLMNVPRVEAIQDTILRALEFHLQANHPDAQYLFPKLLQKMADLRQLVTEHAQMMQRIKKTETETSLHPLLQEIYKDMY
Description: Agonist activity at human GAL4-fused PPARdelta LBD expressed in human HEK293T cells cotransfected with pFR-Luc and pRL-SV40 assessed as increase in luciferase activity at 1 uM incubated for 16 hrs by Dual-Glo luciferase assay relative to control.

The target in test [8] is T3, Vitamin D3 receptor (Homo sapiens) (UniProt P11473).
T3 sequence (whole entry): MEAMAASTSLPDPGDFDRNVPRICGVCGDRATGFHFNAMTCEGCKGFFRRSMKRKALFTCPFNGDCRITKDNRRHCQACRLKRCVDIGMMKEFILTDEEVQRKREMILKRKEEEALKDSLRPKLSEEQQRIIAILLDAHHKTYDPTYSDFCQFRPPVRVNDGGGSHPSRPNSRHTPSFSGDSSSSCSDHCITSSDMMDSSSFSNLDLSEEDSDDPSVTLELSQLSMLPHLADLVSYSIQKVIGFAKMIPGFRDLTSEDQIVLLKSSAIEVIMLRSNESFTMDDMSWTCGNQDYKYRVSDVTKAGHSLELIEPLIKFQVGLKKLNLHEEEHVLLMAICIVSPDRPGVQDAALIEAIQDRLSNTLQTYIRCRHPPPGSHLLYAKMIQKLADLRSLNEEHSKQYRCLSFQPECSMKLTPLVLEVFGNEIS
Briefly: Agonist activity at human GAL4-fused VDR LBD expressed in human HEK293T cells cotransfected with pFR-Luc and pRL-SV40 assessed as increase in luciferase activity at 1 uM incubated for 16 hrs by Dual-Glo luciferase assay relative to control.

In test [9] the target is T4, Bile acid receptor (Homo sapiens) (UniProt Q96RI1).
T4 sequence (whole entry): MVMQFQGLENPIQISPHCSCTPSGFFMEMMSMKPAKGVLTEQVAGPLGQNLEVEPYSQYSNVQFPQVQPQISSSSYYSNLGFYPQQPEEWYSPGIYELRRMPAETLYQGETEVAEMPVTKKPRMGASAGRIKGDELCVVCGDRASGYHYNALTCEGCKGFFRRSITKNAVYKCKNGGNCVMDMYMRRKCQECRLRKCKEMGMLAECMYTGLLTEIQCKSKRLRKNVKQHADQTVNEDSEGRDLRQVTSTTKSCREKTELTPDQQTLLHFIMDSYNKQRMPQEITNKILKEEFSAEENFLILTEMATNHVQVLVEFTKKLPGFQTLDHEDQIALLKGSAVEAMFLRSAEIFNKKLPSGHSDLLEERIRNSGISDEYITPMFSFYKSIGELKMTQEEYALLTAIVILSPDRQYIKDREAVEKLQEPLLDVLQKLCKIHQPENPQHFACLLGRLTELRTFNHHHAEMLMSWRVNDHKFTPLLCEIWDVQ
Briefly: Agonist activity at human GAL4-fused FXR LBD expressed in human HEK293T cells cotransfected with pFR-Luc and pRL-SV40 assessed as increase in luciferase activity at 1 uM incubated for 16 hrs by Dual-Glo luciferase assay relative to control.

We go through 3 molecules from ChEMBL document CHEMBL5316269, “Rational Design of a New RXR Agonist Scaffold Enabling Single-Subtype Preference for RXRα, RXRβ, and RXRγ” (J Med Chem, 2023).

With `O=C(O)Cc1cccc(COc2cccc3c2CCC3)c1`, the Activity is 1% in [1]; 1% in [2]; 1% in test [3]; 14% in test [4]; 1% in test [5]; 2% in [6].

Regarding `Cc1cc(COc2ccc(C)c3c2CCC3)ccc1CCC(=O)O`, the Activity in [7] worked out at 2%; in test [8], 3%; in [9], 1%.

Take `Cc1ccc(OCc2ccc(CCC(=O)O)c(F)c2)c2c1CCC2`: the Activity in test [1] is 1%; in [2] it was 1%; in test [3] it was 4%; in test [4] it was 2%; in [5], 1%; in [6], 2%.
